Values of other authors in publication PMC10411393 (Journal of medicinal chemistry, 2022).

By UniProt entry, the sequences of proteins in these tests, tags left out. Residues count along the entry.
UniProt Q71F23, whole entry, looked up, tested part not stated: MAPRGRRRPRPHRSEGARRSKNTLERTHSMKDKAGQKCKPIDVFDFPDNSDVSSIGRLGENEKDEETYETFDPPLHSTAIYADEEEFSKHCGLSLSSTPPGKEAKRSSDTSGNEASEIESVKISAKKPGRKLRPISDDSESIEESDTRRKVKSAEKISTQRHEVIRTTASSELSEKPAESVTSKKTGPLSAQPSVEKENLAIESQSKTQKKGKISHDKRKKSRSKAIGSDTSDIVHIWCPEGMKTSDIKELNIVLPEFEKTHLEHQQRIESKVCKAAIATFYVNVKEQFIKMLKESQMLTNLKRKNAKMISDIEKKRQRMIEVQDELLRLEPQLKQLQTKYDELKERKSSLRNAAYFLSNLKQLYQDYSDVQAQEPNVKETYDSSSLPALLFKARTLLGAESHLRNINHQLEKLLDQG
UniProt P53350, 371-603: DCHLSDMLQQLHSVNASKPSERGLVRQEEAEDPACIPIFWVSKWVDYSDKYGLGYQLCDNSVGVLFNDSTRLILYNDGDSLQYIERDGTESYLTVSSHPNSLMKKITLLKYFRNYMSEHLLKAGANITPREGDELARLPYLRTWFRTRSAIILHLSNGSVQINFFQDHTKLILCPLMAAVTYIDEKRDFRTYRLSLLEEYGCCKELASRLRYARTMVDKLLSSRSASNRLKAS

Target: PBIP1 phosphopeptide PLHSpT (Homo sapiens) (UniProt Q71F23)
Conditions: cited from earlier work

In the case of Plk1 PBD (from UniProt P53350), the Kd is listed as 450 nM.
